Data published in article PMC9308754 (Chembiochem, 2022).

Assays:
SK‐N‐BE(2)‐C cells = assay: LysoTracker assay, flow cytometry; format: cell-based; conditions: 1 μM
HDAC10 = target: T1, HDAC10 (Homo sapiens, UniProt Q969S8); conditions: read-out: BRET assay (EC50); in‐cellulo; ref 32 (Géraldy et al.); cited from earlier work
T1 sequence (Q969S8 1-669): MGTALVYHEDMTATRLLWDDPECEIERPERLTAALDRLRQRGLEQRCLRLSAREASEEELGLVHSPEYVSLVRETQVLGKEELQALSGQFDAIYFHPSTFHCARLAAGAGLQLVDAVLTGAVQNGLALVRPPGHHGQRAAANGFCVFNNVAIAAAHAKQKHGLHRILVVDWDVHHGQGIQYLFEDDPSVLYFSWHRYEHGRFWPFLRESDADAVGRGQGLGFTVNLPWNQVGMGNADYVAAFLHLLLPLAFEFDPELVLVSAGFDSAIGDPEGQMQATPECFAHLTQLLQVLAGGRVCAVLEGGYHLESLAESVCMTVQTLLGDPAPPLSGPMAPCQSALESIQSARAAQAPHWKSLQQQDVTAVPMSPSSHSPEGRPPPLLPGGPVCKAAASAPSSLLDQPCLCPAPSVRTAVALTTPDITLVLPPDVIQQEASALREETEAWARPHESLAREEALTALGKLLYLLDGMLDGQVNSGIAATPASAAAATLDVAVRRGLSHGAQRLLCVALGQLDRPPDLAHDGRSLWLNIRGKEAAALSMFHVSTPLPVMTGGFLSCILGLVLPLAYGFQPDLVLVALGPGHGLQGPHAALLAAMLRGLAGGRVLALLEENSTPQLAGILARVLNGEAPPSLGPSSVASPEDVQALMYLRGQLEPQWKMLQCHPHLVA

In the case of `O=C(CCCCCCC(=O)Nc1ccccc1)NO` [vorinostat], the “LysoTracker effect (relative signal intensity as compared to control)” value (SK‐N‐BE(2)‐C cells) is listed as 2.0±0.03 and the EC50 (HDAC10) is listed as 630 nM.
